Target: 5-hydroxytryptamine receptor 1A (Homo sapiens, UniProt P08908)
Test: Mean negative logarithim of binding affinity was measured for the human 5-hydroxytryptamine 1A receptor; n>/=3

By UniProt entry, the sequences of proteins in these tests, tags left out.
UniProt P08908, whole entry: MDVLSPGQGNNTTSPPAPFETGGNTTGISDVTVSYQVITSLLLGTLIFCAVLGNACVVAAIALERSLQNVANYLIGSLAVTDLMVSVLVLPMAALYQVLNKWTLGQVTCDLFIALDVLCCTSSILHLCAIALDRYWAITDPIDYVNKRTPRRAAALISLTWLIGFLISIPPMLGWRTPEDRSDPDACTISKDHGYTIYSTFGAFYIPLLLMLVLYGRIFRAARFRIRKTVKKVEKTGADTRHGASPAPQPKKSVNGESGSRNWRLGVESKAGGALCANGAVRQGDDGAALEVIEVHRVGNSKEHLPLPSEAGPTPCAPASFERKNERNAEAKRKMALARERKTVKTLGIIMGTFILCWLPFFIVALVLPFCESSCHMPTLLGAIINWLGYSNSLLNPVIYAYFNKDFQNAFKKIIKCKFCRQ

Cc1ccc2c(OCCN3CCC(Cc4ccc5c(c4)NC(=O)CO5)CC3)cccc2n1
Ki: 0.316 nM
